Measurements as given in PubChem BioAssay AID686 (PCMD, 2007).
The list shows a part of the results, in another mix than the full data. The source made the active and inactive calls.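 Rule for the calls: active = a full or partial loss of lipid-probe fluorescence in the fish gall bladder, intestine or both, judged by eye; inactive = no fluorescence loss, or compound toxic to the fish.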

experiment: inhibitors of larval lipid processing in zebrafish, primary screen, whole organism, PED6 fluorescence, gall bladder and intestine (AID 686); conditions: Zebrafish larvae PED6 lipid processing, fluorescence scoring; screened at 20 µM (by protocol);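 note: larvae 5 to 7 days old with five fish per well; signal comes from phospholipase A2 cleavage of quenched PED6 carried via bile; overnight exposure to compound and PED6 before scoring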
Method in brief: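 Also added: quenched phospholipase substrate PED6, 100 nM final, ingested by larvae; System: zebrafish larvae, 5-7 d; Quantity: 5 larvae per well; Compound: 20 µM single dose; Schedule: overnight compound and PED6 incubation; Read-out: visual per-well fluorescence inhibition score; Measured by: By-eye fluorescence microscopy; Medium: E3.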

Compound	outcome
Cc1cccc(OCC(=O)OC2CN3CCC2CC3)c1 (configuration not stated)	inactive
Cc1ccc(OCC(=O)OC2CN3CCC2CC3)cc1 (configuration not stated)	inactive
